In the library only some 2.2% were active in any assay of this set; here they are far more common.
Nrf2 block = Nrf2 pathway inhibition. actives 2.1% (n = 360,000). A549 ARE-Fluc reporter, luciferase luminescence, 18-24 h. Potency, µM (top dose mostly 46 µM), for the others: at the top dose activity change, negative = inhibition, most hits filed as inhibitors; also: potency is read from the fitted curve at half-maximal effect; % is scaled to controls: 0 for no effect and ±100 for the full control effect; nearly all actives have a fitted effect of over 60% in size
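Concentration-response testing used A549 ARE_Fluc cells at 5000 cells/well. Following an 18-24 h compound incubation, viability was read by fluorescence (Ex 405/Em 525) and luciferase output by luminescence.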
miR-21 reporter = miR-21 reporter, rising signal; HeLa miR-21 FLuc reporter, luciferase, 48 h; Potency, µM (highest dose often 38.3 µM), for the others: top-dose reporter change, positive = more light; 340,000 tested, under 10 active; AID 2288; active = well fitted rising curve with a large enough effect; inconclusive = small, poorly fitted or top-dose-only effect; inactive = no such curve, though single readings can be large or run the other way;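 further: % of control where 0% means no effect; miR-21 action dims this reporter so a rising signal means less miR-21 action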
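HeLa cells stably expressing CMV-driven firefly luciferase with a downstream miR-21 binding sequence, endogenously expressing miR-21, were treated with titrations (up to about 40uM final) for 48 hours at 37 degree Celsius. Luciferase luminescence was read after lysis.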
Nrf2 activator = Nrf2 pathway activation | AREc32 ARE-luciferase reporter (MCF7-derived line), luminescence, 24 h | actives 0.31% (n = 410,000) | Potency, µM (top dose mostly 46.1 µM), for inactives: at the highest dose activation, usual class: activators; also: potency is read from the fitted curve at half-maximal effect; % of control where 0% means no effect; nearly all actives have a fitted effect of over 65% in size
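Reporter line AREc32 (ARE-Fluc), seeded overnight in OPTI-MEM with 5% FBS; compound pin-transferred, 24 hr at 37 deg C, 5% CO2; luminescent read-out.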
B2AR arrestin = recruits beta-arrestin to the human beta2-adrenergic receptor | P07550 | beta-arrestin recruitment to beta2AR, cell-based reporter | Potency, µM (titrated, usually from 46.1 µM), for inactives: top-dose activation, most hits filed as activators | actives 0.02% (n = 330,000) | AID 492947;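 also: potency is read from the fitted curve at half-maximal effect; 0% = DMSO controls and full agonism = EC100 isoproterenol or metaproterenol; nearly all actives have a fitted effect of over 65% in size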
A549 viability = A549 cytotoxicity, counter-screen for Nrf2 inhibitors. A549 ARE-Fluc cells, CellTiter-Fluor viability, 18-24 h. Potency, µM (top dose mostly 46 µM), inactives show top-dose activity change, negative = cytotoxicity, usual class: inhibitors. actives 0.16% (n = 390,000); also: potency is read from the fitted curve at half-maximal effect; % is scaled to controls: 0 for no effect and ±100 for the full control effect
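A549 ARE-Fluc cells in 5% FBS OPTI-MEM, 5000 cells/well, rested 2 h then exposed to compounds in concentration-response for 18-24 h at 37 °C. Viability by CellTiter-Fluor fluorescence (Ex 405/Em 525) after 30 min; luciferase luminescence (BugLite, 15 min, RT) read afterwards.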
The depositor's hits bear a star; [ ] = another dose, or the depositor's remark. Unless noted, calls follow the shape of the dose curve; as a rule, active = well fitted curve in the direction sought with a large enough effect; inconclusive = small, poorly fitted or top-dose-only effect, or another doubt; inactive = no such curve, though single readings can be large; an effect the other way counts as inactive or inconclusive.

What do the screens show for `CCC(Oc1ccc(F)cc1)C(=O)Nc1nc(-c2ccc(F)cc2)ns1` (centres undefined)?
Nrf2 block: 16µM*; miR-21 reporter: inconclusive; Nrf2 activator: -1%; A549 viability: inconclusive

Results for CCC(Oc1ccc(F)cc1)C(=O)Nc1cc(-c2ccc(C)cc2)no1 (centres undefined) ?
Nrf2 block: -24%; miR-21 reporter: -1%; Nrf2 activator: 7%; A549 viability: 4%

What do the screens show for `COc1ccccc1-c1cc(C(F)(F)F)nc(S(=O)(=O)CCCC(=O)Nc2cccnc2Cl)n1`?
Nrf2 block: 21µM*; miR-21 reporter: inconclusive; Nrf2 activator: -3%; B2AR arrestin: 0%; A549 viability: inconclusive

Results for COc1ccccc1-c1cc(C(F)(F)F)nc(S(=O)(=O)CCCC(=O)Nc2ccccc2F)n1 ?
Nrf2 block: -6%[9.27 µM]; miR-21 reporter: inconclusive; Nrf2 activator: -7%; A549 viability: 0%

What do the screens show for `O=C1CCCN1c1ccc(S(=O)(=O)NCCOc2ccccc2)cc1`?
Nrf2 block: 13µM*; miR-21 reporter: -1%; Nrf2 activator: 0%; B2AR arrestin: 0%; A549 viability: -11%

What do the screens show for `Cc1cc(N2CCCC2=O)cc(C)c1S(=O)(=O)NCCOc1ccc(C(C)(C)C)cc1`?
Nrf2 block: inconclusive; miR-21 reporter: 24%; Nrf2 activator: 0%; B2AR arrestin: 0%; A549 viability: -16%

What do the screens show for `c1ccc(CN2CCN(c3nc(NCc4ccco4)c4ccccc4n3)CC2)cc1`?
Nrf2 block: 23µM*; miR-21 reporter: 30%; Nrf2 activator: 8%; B2AR arrestin: 0%; A549 viability: inconclusive

How did COC(=O)C1=C(C(=O)OC)[C@]2([C@@H]3CC=CCN[C@@H](Cc4ccccc4)C(=O)N3Cc3ccccc3)C=C[C@H]1O2 do in these assays?
Nrf2 block: -15%; Nrf2 activator: 8%; A549 viability: -3%

What do the screens show for `C=CCC(Nc1ccccc1)C12C=CC(O1)C(C(=O)OC)=C2C(=O)OC` (centres undefined)?
Nrf2 block: inconclusive; miR-21 reporter: 6%; Nrf2 activator: 11µM*; B2AR arrestin: -1%; A549 viability: -19%

What do the screens show for `COc1cc2c(=O)c(C(=O)c3ccc(C)c(C)c3)cn(Cc3ccccc3F)c2cc1OC`?
Nrf2 block: inconclusive; miR-21 reporter: -9%; Nrf2 activator: -3%; A549 viability: 21µM*

How did CCc1ccc(C(=O)c2cn(Cc3ccccc3)c3cc(OC)c(OC)cc3c2=O)cc1 do in these assays?
Nrf2 block: inconclusive; miR-21 reporter: inconclusive; Nrf2 activator: 0%; A549 viability: 21µM*

Results for COc1cc2c(=O)c(C(=O)c3ccc(C)c(C)c3)cn(Cc3ccccc3)c2cc1OC ?
Nrf2 block: 20%; miR-21 reporter: inconclusive; Nrf2 activator: 0%; A549 viability: -10%

What do the screens show for `NC(=NCCc1c[nH]c2ccccc12)NS(=O)(=O)c1ccc2ccccc2c1`?
Nrf2 block: 16µM*; miR-21 reporter: 15%; Nrf2 activator: 5%; B2AR arrestin: 3%; A549 viability: inconclusive

What do the screens show for `CCOc1ccc2ncc3c(-c4cccc(OC)c4)nn(-c4ccccc4)c3c2c1`?
Nrf2 block: -14%; miR-21 reporter: 0%; Nrf2 activator: -1%; A549 viability: 24%

What do the screens show for `Cc1ccc(S(=O)(=O)N2[C@@H](c3ccc(Br)cc3)C(C(=O)O)=CC[C@H]2c2ccc(Cl)c(Cl)c2)cc1`?
Nrf2 block: 26µM*; Nrf2 activator: 0%; B2AR arrestin: 0%; A549 viability: -16%

How did FC(F)Sc1ccc(N=C2NN=C(c3ccc4c(c3)OCCO4)CS2)cc1 do in these assays?
Nrf2 block: 16µM*; miR-21 reporter: 26%; Nrf2 activator: 9%; B2AR arrestin: 0%; A549 viability: 16µM*

What do the screens show for `c1cc2c(cc1C1=NNC(=NC3CC3)SC1)OCCO2`?
Nrf2 block: 2.3µM*; miR-21 reporter: inconclusive; Nrf2 activator: -3%; B2AR arrestin: 0%; A549 viability: 3%

How did CCC(=O)NC(c1ccc(Br)o1)c1cc(Cl)c2cccnc2c1O (centres undefined) do in these assays?
Nrf2 block: inconclusive; A549 viability: -15%

What do the screens show for `O=C1CCc2cc([S+](=O)([O-])NC3CCOCC3)ccc2N1`?
Nrf2 block: 0%; A549 viability: 0%

How did CCN(CC)S(=O)(=O)c1cccc(S(=O)(=O)N2CCCCC2)c1 do in these assays?
Nrf2 block: 5%; miR-21 reporter: -2%; Nrf2 activator: 0%; B2AR arrestin: 0%; A549 viability: -2%

What do the screens show for `CCN(CC)S(=O)(=O)c1cccc(S(=O)(=O)c2cccc(S(=O)(=O)N(CC)CC)c2)c1`?
Nrf2 block: 9.2µM*; miR-21 reporter: 22%; Nrf2 activator: 0%; B2AR arrestin: -1%; A549 viability: 1%

How did COc1ccccc1N1CCN(C(=O)c2cc3cc(F)ccc3[nH]2)CC1 do in these assays?
Nrf2 block: inconclusive; miR-21 reporter: -5%; Nrf2 activator: 6%; B2AR arrestin: 0%; A549 viability: -2%

How did Cc1cccc(N2CCN(C(=O)c3cc4cc(F)ccc4[nH]3)CC2)c1C do in these assays?
Nrf2 block: 18%; miR-21 reporter: -9%; Nrf2 activator: 7.1µM*; B2AR arrestin: 0%; A549 viability: -4%

What do the screens show for `Cc1csc(NC(=O)/C=C/c2ccco2)n1`?
Nrf2 block: inconclusive; miR-21 reporter: -9%; Nrf2 activator: 1.8µM*; B2AR arrestin: -1%; A549 viability: -4%

How did Cc1ccccc1NC(=S)NC(=O)/C=C/c1ccco1 do in these assays?
Nrf2 block: inconclusive; miR-21 reporter: -4%; Nrf2 activator: 18µM*; B2AR arrestin: -1%; A549 viability: -26%

How did O=C(/C=C/c1ccco1)Nc1nc(-c2ccccc2)cs1 do in these assays?
Nrf2 block: 29%; miR-21 reporter: -13%; Nrf2 activator: 16%; B2AR arrestin: 1%; A549 viability: 2%

How did O=C(CN1CCCC1)Nc1nnc(-c2cccs2)s1 do in these assays?
Nrf2 block: inconclusive; miR-21 reporter: -21%; Nrf2 activator: 11µM*; B2AR arrestin: 0%; A549 viability: -5%

Results for Cc1occc1C(=O)Nc1nnc(-c2cccs2)s1 ?
Nrf2 block: inconclusive; miR-21 reporter: -56%; Nrf2 activator: 11µM*; B2AR arrestin: -1%; A549 viability: -3%

Results for O=C(CN1CCCCC1)Nc1nnc(-c2ccccc2)s1 ?
Nrf2 block: 25%; miR-21 reporter: -34%; Nrf2 activator: inconclusive; B2AR arrestin: 0%; A549 viability: -1%

What do the screens show for `CCc1ccc(C(=O)COC(=O)c2cc([N+](=O)[O-])ccc2NCCO)cc1`?
Nrf2 block: 7.3µM*; miR-21 reporter: -6%; Nrf2 activator: 3%; B2AR arrestin: -1%; A549 viability: 15µM*

No new results follow: 4 of the compounds above.
What do the screens show for `CCN(CC)S(=O)(=O)c1cccc(S(=O)(=O)c2cccc(S(=O)(=O)N(CC)CC)c2)c1`?
Nrf2 block: 9.2µM*; miR-21 reporter: 22%; Nrf2 activator: 0%; B2AR arrestin: -1%; A549 viability: 1%

How did COc1ccccc1N1CCN(C(=O)c2cc3cc(F)ccc3[nH]2)CC1 do in these assays?
Nrf2 block: inconclusive; miR-21 reporter: -5%; Nrf2 activator: 6%; B2AR arrestin: 0%; A549 viability: -2%

How did Cc1cccc(N2CCN(C(=O)c3cc4cc(F)ccc4[nH]3)CC2)c1C do in these assays?
Nrf2 block: 18%; miR-21 reporter: -9%; Nrf2 activator: 7.1µM*; B2AR arrestin: 0%; A549 viability: -4%

What do the screens show for `Cc1csc(NC(=O)/C=C/c2ccco2)n1`?
Nrf2 block: inconclusive; miR-21 reporter: -9%; Nrf2 activator: 1.8µM*; B2AR arrestin: -1%; A549 viability: -4%

Bioassay records (PubChem BioAssay)
